{
  "sequences": {"note": "Amino acid sequences for entries named in this document (tags omitted). Residues count along the entry.", "UniProt P06276, 29-602": "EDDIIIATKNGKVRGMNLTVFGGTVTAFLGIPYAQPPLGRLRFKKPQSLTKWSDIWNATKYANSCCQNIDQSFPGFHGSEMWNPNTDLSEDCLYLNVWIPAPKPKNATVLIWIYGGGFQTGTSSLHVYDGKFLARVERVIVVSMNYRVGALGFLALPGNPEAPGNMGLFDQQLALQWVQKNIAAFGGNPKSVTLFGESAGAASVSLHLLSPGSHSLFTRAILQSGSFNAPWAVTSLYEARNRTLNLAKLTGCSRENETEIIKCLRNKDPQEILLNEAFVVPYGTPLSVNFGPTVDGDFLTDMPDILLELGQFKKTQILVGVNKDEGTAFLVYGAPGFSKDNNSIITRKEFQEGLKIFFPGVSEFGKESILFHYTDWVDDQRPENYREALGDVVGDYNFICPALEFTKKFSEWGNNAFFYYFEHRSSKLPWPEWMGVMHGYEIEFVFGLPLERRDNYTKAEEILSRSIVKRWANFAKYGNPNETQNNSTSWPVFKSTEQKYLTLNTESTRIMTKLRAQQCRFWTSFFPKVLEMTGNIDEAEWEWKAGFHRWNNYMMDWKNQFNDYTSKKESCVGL"},
  "source": "paper PMC6445159",
  "about": "“Resorcinol-, catechol- and saligenin-based bronchodilating β2-agonists as inhibitors of human cholinesterase activity” (Journal of Enzyme Inhibition and Medicinal Chemistry, 2017)",
  "molecular_target": "T1, usual BChE (Homo sapiens, UniProt P06276)",
  "T1 construct": "Human native serum was used as a source of BChE; from tissue; host or cells: human serum (donor, IMROH Zagreb)",
  "format": "biochemical",
  "procedure": "ATCh was used as a substrate for AChE and PTCh as a substrate for BChE. The reaction mixture contained DTNB (final concentration 0.3 mM), buffer, enzyme suspension, inhibitor (0.5–10 mM) and ATCh or PTCh (0.025–1.0 mM). Inhibition of enzymes was determined by measuring the decrease in enzyme activity in the presence of inhibitors.\nThe dissociation constant for an enzyme–inhibitor complex K(I) was evaluated from the impact of substrate concentrations [S] on the degree of inhibition applying the Hunter–Downs equation[17]^,[39]: Ki,app=vi/v0-vi·[I]=K(I)+K(I)/K(S)·[S] where Ki,app is an apparent enzyme-reversible inhibitor complex dissociation constant obtained at a given substrate concentration [S] in the presence of inhibitor concentration [I] and calculated from the enzyme activities v0 and vi measured without inhibitor and in the presence of inhibitor concentration [I], respectively. K(I) is the enzyme-reversible inhibitor complex dissociation constant and can stand for a complex formed at the catalytic site or for a complex formed at the peripheral site of the enzyme. K(S) is the enzyme-substrate dissociation constant that could be approximated to the Michaelis constant or to the enzyme-substrate dissociation constant when two molecules of the substrate are bound to the enzyme.",
  "data": [
    {"smiles": "CC(Cc1ccc(O)cc1)NCC(O)c1cc(O)cc(O)c1", "note": "(stereo not shown) [Fenoterol]", "values": [
      {"measurement": "selectivity: inhibition of usual BChE more potent than AChE (ratio of K(I) constants)", "result": 36, "unit": "times"}
    ]}
  ]
}
